Source: patent US20260027226A1 (Pheon Therapeutics Ltd, priority 2022, published 2026)

Assay: S9 liver studies, human and monkey (summary)
Conditions: human and cyno S9

Substance: Trastuzumab-DM1
- Detected Metabolites in Liver Microsome S9 Studies: DM1
